For two molecules, activation results are on record in PubChem BioAssay AID528 (NMMLSC, 2006).

Protein sequences, listed by entry. Tags and fused reporters are not part of them.
UniProt P13612, whole entry, looked up: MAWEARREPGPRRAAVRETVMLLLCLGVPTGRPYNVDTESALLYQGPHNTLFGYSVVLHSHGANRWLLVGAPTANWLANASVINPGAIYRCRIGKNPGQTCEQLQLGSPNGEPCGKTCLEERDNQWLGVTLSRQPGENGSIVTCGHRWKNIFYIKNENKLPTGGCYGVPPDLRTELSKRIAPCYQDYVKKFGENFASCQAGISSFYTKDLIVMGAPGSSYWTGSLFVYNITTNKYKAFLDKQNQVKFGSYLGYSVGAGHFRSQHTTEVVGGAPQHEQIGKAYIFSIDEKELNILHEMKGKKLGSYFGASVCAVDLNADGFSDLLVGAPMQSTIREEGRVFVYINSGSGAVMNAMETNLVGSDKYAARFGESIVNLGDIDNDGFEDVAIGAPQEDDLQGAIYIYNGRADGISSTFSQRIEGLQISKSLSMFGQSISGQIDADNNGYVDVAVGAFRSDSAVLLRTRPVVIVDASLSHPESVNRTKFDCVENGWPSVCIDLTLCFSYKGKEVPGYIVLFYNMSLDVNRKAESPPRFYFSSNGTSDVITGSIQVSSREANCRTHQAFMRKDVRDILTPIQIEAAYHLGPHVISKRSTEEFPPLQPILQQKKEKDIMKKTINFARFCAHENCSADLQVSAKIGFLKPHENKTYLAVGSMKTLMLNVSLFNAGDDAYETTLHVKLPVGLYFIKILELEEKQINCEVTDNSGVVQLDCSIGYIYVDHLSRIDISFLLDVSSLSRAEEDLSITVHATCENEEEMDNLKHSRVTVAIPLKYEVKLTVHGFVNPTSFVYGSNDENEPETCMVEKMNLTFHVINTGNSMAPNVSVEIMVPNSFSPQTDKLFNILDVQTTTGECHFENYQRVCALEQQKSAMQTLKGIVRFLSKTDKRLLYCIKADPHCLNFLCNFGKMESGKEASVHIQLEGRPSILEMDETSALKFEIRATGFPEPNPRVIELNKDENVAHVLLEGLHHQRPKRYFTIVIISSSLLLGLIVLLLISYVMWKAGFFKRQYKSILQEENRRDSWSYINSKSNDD

The list shows a part of the results, in another mix than the full data. Records with an inconclusive call do not appear. Activity calls are given as the source filed them.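 The calls were made as follows: active = fluorescent ligand binding to cells raised by more than 40% of the manganese-induced maximum; inconclusive = compound's own fluorescence above 85% of the ligand control signal; inactive = the rest.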

The target in the assay is Integrin alpha-4 (Homo sapiens) (UniProt P13612). As to the kind of experiment: increased LDV-FITC ligand binding on VLA-4 – Jurkat cells, flow cytometry, primary screen (AID 528).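 Also: 0% = ligand binding without compound and 100% = manganese-stimulated maximal binding.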 The note with it: active compounds read high, screened at 10 µM (by protocol). A general note: A flow cytometer gives signals particle by particle.
As to `Fc1ccccc1NC1CCN(Cc2ccccc2)CC1`, the activation is inactive: -3.5%.

On to `N#CC1(Nc2ccccc2)CCN(CCc2ccccc2)CC1`, for which the activation is inactive: -2%.
